In PMC6117024, “NOP receptor pharmacological profile – A dynamic mass redistribution study” (PLoS ONE, 2018) one finds pEC50 of the DMR response, CHO cells expressing the kappa opioid receptor data, which are given here for one substance.

Sequences of proteins named here, by UniProt entry; tags and fusion partners are left off. A change or cut given only in a name is not applied to a line headed by its entry.
UniProt P41145: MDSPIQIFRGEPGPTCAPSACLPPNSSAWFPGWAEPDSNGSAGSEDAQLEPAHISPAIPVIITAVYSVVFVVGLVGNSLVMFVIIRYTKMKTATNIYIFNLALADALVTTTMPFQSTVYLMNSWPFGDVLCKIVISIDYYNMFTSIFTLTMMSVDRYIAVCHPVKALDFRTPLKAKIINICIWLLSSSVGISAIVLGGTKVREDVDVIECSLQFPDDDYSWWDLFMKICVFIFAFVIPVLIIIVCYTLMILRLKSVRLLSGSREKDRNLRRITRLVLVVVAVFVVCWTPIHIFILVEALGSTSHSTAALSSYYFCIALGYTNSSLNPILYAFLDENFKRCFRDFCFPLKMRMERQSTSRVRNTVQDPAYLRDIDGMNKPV

The experiment deals with kappa opioid receptor (UniProt P41145).

Take Dynorphin A (peptide): the pEC50 of the DMR response, CHO cells expressing the kappa opioid receptor is 9.39 -log10(M).
